Laboratory results as given in patent US12139480B2, “5-thiazolecarboxamide kinase inhibitor and uses thereof” (iOmx Therapeutics AG, priority 2018, dated 2024).

The chains behind the UniProt entries cited, without tags or fusion partners. Residues count along the entry.
UniProt P29320, 21-983: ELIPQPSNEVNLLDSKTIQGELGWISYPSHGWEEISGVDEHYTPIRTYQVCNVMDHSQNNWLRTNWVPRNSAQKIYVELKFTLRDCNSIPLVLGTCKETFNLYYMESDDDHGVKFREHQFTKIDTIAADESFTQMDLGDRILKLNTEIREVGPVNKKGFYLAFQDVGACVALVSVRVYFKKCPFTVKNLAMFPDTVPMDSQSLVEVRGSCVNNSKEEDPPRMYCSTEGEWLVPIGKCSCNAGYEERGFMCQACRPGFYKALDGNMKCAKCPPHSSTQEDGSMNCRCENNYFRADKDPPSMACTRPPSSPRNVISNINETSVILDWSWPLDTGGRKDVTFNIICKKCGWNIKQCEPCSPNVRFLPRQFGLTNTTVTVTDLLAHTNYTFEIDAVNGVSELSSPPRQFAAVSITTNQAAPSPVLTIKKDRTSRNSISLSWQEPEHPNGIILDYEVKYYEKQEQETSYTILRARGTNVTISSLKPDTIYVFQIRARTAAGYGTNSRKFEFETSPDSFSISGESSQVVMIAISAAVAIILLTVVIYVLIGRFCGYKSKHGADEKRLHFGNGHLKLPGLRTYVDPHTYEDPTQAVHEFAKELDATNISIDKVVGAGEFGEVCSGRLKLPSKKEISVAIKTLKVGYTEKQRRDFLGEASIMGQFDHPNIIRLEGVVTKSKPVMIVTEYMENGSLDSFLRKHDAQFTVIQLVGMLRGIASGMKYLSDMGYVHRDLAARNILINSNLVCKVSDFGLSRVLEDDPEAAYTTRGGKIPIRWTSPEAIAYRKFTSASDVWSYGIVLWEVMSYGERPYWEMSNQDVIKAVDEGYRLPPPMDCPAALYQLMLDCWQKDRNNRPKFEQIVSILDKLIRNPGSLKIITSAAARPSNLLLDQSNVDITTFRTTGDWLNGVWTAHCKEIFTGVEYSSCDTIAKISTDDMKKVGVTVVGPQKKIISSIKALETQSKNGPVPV
UniProt Q15375, 28-998: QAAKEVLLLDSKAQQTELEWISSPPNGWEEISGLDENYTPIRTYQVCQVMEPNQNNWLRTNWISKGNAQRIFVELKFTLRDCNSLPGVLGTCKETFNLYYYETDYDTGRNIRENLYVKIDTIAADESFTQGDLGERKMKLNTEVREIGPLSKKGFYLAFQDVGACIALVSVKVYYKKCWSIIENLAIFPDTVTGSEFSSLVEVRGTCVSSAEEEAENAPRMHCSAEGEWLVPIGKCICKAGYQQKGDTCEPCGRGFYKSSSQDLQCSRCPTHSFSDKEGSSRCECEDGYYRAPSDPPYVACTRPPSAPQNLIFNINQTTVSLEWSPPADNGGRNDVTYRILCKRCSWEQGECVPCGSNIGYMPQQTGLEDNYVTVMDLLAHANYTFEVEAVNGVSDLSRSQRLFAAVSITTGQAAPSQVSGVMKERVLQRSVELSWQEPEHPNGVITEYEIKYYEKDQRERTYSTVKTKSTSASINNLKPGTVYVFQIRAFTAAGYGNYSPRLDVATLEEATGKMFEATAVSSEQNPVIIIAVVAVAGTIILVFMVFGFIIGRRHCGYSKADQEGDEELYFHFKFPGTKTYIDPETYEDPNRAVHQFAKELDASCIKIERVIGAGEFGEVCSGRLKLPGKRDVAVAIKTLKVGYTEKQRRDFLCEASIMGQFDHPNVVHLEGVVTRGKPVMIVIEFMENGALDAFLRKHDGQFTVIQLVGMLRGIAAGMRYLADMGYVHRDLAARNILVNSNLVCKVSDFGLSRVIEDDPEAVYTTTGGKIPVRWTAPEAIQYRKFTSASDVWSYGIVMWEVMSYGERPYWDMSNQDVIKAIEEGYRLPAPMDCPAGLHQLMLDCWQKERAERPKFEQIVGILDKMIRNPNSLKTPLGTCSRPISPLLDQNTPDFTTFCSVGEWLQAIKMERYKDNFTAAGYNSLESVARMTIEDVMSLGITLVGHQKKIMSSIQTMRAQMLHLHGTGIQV
UniProt P54762, 18-984: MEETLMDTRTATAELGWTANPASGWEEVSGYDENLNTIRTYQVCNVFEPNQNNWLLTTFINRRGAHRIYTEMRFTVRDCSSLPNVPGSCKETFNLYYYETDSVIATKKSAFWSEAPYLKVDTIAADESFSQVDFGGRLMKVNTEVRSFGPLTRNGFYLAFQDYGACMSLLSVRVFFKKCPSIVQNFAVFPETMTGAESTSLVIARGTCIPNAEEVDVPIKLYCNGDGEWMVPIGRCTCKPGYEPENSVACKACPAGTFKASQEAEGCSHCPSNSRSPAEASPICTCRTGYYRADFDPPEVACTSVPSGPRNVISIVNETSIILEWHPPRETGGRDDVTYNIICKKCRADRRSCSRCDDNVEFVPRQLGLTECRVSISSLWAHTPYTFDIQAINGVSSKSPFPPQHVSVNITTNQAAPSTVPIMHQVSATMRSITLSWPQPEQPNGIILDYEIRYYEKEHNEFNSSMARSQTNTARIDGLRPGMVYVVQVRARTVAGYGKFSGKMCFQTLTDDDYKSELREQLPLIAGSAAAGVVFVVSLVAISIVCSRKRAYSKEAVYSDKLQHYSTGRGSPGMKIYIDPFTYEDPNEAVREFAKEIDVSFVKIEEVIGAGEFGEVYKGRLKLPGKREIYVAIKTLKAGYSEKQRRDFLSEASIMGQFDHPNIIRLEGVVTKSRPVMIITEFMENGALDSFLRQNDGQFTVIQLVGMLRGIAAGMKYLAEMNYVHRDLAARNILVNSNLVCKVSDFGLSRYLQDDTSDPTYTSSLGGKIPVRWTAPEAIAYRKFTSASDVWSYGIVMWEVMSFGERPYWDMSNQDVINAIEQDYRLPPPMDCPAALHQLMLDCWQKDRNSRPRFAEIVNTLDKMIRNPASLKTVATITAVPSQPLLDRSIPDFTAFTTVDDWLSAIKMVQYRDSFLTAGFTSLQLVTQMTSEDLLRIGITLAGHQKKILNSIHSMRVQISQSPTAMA

Legend:
EPHA3 = molecular target: T1, EPHA3 (Homo sapiens, UniProt P29320); assay: single-point (1 uM) inhibition assay (ProQinase Kinase Profiler); format: biochemical; details: EPH-A3; read-out: Residual activity (%) at 1 uM
T1 construct: purchased ProQinase

EPH-A7 = EPH-A7 (Homo sapiens, UniProt Q15375); assay: as above; format: biochemical; details: read-out: Residual activity (%) at 1 uM
EPHB1 = molecular target: T2, EPHB1 (Homo sapiens, UniProt P54762); assay: as above; format: biochemical; details: read-out: Residual activity (%) at 1 uM
T2 construct: purchased ProQinase

MDCK-MDR1 cells = details: dog
MDCK-wild type cells = details: dog

| Structure (SMILES) | remaining activity at 1 µM (EPHA3) | remaining activity at 1 µM (EPH-A7) | remaining activity at 1 µM (EPHB1) | Mean recovery B > A (MDCK-MDR1 cells) | Mean recovery A > B (MDCK-wild type cells) |
| --- | --- | --- | --- | --- | --- |
| Cc1nc(Nc2ncc(C(=O)Nc3c(C)cccc3Cl)s2)cc(N2CCN(CCO)CC2)n1 [Compound A8, N-(2-chloro-6-methylphenyl)-2-((6-(4-(2-hydroxyethyl)piperazin-1-yl)-2-methylpyrimidin-4-yl)amino)thiazole-5-carboxamide, reference compound] | 0% | 88% | 0% | – | – |
| Cc1nc(Nc2ncc(C(=O)Nc3c(Cl)ccnc3C)s2)cc(N2CCN(CCO)CC2)n1 [Compound B3, N-(4-chloro-2-methylpyridin-3-yl)-2-((6-(4-(2-hydroxyethyl)piperazin-1-yl)-2-methylpyrimidin-4-yl)amino)thiazole-5-carboxamide] | – | – | – | 103% | 103% |
